Two molecules from ChEMBL document CHEMBL1127379, “Three-dimensional molecular shape analysis-quantitative structure-activity relationship of a series of cholecystokinin-A receptor antagonists” (J Med Chem, 1994) can be followed below.

Protein sequences, listed by entry. Tags and fused reporters are not part of them.
UniProt P30551, whole entry: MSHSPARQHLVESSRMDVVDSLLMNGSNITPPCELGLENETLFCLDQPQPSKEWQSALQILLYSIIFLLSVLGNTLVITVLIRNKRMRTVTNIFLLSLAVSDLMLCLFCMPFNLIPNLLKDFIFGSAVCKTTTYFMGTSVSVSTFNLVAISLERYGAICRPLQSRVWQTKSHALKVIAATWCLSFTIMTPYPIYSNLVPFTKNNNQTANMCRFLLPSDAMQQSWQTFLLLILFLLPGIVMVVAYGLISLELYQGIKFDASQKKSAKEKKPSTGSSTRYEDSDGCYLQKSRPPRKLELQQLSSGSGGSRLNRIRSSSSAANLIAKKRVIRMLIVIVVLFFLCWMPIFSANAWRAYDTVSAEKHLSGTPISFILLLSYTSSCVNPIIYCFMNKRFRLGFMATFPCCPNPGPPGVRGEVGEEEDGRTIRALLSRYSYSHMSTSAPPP

The target of the assay is Cholecystokinin receptor type A (Rattus norvegicus, UniProt P30551). Nature of the assay: Binding affinity against cholecystokinin type A receptor of rat pancreas.

As a reminder, the IC50 is the concentration that inhibits the measured activity by half. A low value points to inhibition by little substance. `CN1C(=O)C(NC(=O)c2ccccc2Br)N=C(c2ccccc2F)c2ccccc21` (configuration not stated): the IC50 is 6.17 µM.

`O=C(NC1N=C(c2ccccc2F)c2ccccc2NC1=O)c1ccccc1Cl` (configuration not stated) gave a half-maximal inhibitory concentration (IC50) of 5.62 µM.
